Values quoted from earlier work in paper PMC4793533 (BMC obesity, 2016).

Conditions: 31 test persons with normal fat assimilation; oral doses, radioactively labelled; after 6 days; cited from earlier work

triolein
Excreted in the faeces: less than 10%
